Protein sequences, listed by entry. Tags and fused reporters are not part of them.
UniProt Q9HCE7, whole entry: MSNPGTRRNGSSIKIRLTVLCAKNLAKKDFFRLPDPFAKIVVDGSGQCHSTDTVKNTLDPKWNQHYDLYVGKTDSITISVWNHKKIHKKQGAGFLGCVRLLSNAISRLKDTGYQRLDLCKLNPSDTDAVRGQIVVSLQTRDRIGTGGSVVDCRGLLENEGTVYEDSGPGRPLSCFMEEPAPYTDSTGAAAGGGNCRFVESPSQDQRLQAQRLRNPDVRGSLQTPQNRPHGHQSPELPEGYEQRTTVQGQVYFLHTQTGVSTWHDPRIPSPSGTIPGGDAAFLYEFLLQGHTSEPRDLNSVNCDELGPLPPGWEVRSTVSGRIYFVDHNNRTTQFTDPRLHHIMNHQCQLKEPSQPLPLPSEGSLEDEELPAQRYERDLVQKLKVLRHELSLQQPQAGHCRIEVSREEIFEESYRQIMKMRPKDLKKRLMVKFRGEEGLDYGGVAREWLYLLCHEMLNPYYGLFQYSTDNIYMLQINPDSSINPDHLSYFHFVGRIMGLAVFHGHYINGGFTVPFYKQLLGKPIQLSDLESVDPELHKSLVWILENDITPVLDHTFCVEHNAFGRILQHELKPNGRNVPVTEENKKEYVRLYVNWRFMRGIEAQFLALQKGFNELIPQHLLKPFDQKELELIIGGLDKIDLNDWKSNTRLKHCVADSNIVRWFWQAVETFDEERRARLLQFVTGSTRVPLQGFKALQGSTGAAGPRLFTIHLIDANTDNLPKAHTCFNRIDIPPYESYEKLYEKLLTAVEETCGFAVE

In US10195181B2, “Carboxamide derivatives” (Novartis AG, priority 2014, dated 2019):

Target: Smurf-1 (Homo sapiens (Human), UniProt Q9HCE7)
Experiment: HECT E3 ligase autoubiquitinylation TR-FRET assay (Smurf-1)
Assay type: biochemical
Source text: To determine the HECT E3 ligase selectivity of the compounds, a panel of biochemical HECT E3 ligase autoubiquitinylation assays was employed (Smurf-1, Smurf-2, WWP1, WWP2, ITCH, Nedd4, Nedd4L and E6AP). The conjugation of ubiquitin to a protein substrate is a multistep process. In an initial ATP-requiring step, a thioester bond is formed between the carboxyl terminus of ubiquitin and an internal cystein residue of the ubiquitin-activating enzyme (E1). Activated ubiquitin is then transferred to a specific cystein residue of an ubiquitin-conjugating enzyme (E2). E2s donate ubiquitin to a HECT E3 ligase (E3) from which it is transferred to the substrate protein. HECT E3 ligases can auto-ubiquitinylate. This event is detected in the TR-FRET (Time-Resolved Fluorescence Resonance Energy Transfer) assay used in this panel. The reaction mix contains E1, E2, tagged-E3, biotin-conjugated ubiquitin, the compound and ATP in a suitable buffer and is incubated for 45 minutes to allow auto-ubiquitinylation of the E3 ligase. […] When these two fluorophores are brought together by a biomolecular interaction (in this case ubiquitinylation of the E3 ligase), a portion of the energy captured by the Cryptate during excitation is released through fluorescence emission at 620 nm, while the remaining energy is transferred to XL665. This energy is then released by XL665 as specific fluorescence at 665 nm. […]

Row | SMILES | IC50 [nM]
1 | Cc1c(C(=O)Nc2c(C)n(C)n(C3CCCCC3)c2=O)noc1[C@H]1OC[C@@H](C(C)(C)C)O1 (single isomer, unassigned) [Example 25c, 5-(4-(tert-Butyl)-1,3-dioxolan-2-yl)-N-(2-cyclohexyl-1,5-dimethyl-3-oxo-2,3-dihydro-1H-pyrazol-4-yl)-4-methylisoxazole-3-carboxamide] | 840
2 | Cc1c(C(=O)Nc2c(C)n(C)n(C3CCCCC3)c2=O)noc1C1OC[C@@H](C(C)(C)C)O1 (single isomer, unassigned) [Example 25a, 5-(4-(tert-butyl)-1,3-dioxolan-2-yl)-N-(2-cyclohexyl-1,5-dimethyl-3-oxo-2,3-dihydro-1H-pyrazol-4-yl)-4-methylisoxazole-3-carboxamide] | 160
